Measurements taken from PubChem BioAssay AID624287 (National Center for Advancing Translational Sciences (NCATS), 2012).
The entries are a selection whose mix differs from that of the whole data set. Results filed as inconclusive are left out. Calls of active or inactive are those of the source. Calls follow the shape of the dose curve; as a rule, active = well fitted activation curve with a large enough effect; inconclusive = small, poorly fitted or top-dose-only effect, or another doubt; inactive = no such curve, though single readings can be large or run the other way; cell line not stated here.

Experiment: qHTS for Agonist of gsp, the Etiologic Mutation Responsible for Fibrous Dysplasia/McCune-Albright Syndrome: qHTS;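 also: phosphodiesterase inhibitor Ro 20-1724 added with compounds to block cAMP breakdown; nearly all actives have a fitted effect of over 60% in size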
Settings: gsp mutant cells, cAMP HTRF, 30 min; at 76.9 µM (top of the series) unless noted

Q: For `COc1ccccc1OP(C)(=O)Nc1ccccc1` (stereo not given), which activation (cAMP increase) is on record?
A: inactive: 0.217% [at 15.4 µM]

Q: With `Cc1cc(SC(NC=O)C(Cl)(Cl)Cl)ncn1` (stereo not given) as the compound, how does the activation (cAMP increase) read?
A: inactive: -0.103% [at 15.4 µM]

Q: Which activation (cAMP increase) does the source give for `O=P(Nc1ccccn1)(c1cccc2ccccc12)c1cccc2ccccc12` here?
A: inactive: -23.6%

Q: With `CC1CCNP(=O)(N(CCCl)CCCl)O1` (stereo not given) as the compound, how does the activation (cAMP increase) read?
A: inactive: 15.4% [at 15.4 µM]

Q: With `CCOC(=O)Nc1ccc([As](=O)(O)O)c(O)c1` as the compound, how does the activation (cAMP increase) read?
A: inactive: 19.3%

Q: For `Cc1cc(SC(NC(=O)c2ccccc2)C(Cl)(Cl)Cl)nc(C(C)C)n1` (stereo not given), which activation (cAMP increase) is on record?
A: inactive: -23.7%

Q: Which activation (cAMP increase) does the source give for `CCCCOc1ccc(C(=O)NCC2(N3CCCCC3)CCCCC2)cc1OC` here?
A: inactive: -4.62% [at 15.4 µM]

Q: For `COP(=O)(OC)N1CC1c1ccccc1` (stereo not given), which activation (cAMP increase) is on record?
A: inactive: -22.4%

Q: Which activation (cAMP increase) does the source give for `O=[N+]([O-])c1cc([N+](=O)[O-])c(O)c([N+](=O)[O-])c1.c1ccc(Oc2ccncc2)cc1` here?
A: inactive: -4.37% [at 15.4 µM]

Q: With `CCOC(=O)c1ccc(NC(=O)C(C)(CCl)SC)cc1` (stereo not given) as the compound, how does the activation (cAMP increase) read?
A: inactive: 2.75% [at 15.4 µM]

Q: With `CCOC(=O)c1ccc(NP(C)(=O)Oc2ccc(OC)cc2)cc1` (stereo not given) as the compound, how does the activation (cAMP increase) read?
A: inactive: -4.64% [at 15.4 µM]

Q: For `CSc1ccc(Nc2c([N+](=O)[O-])cc([N+](=O)[O-])cc2[N+](=O)[O-])cc1`, which activation (cAMP increase) is on record?
A: inactive: -4.01%

Q: With `CCOP(C)(=S)SCC(=O)NC(C)C(=O)O` (stereo not given) as the compound, how does the activation (cAMP increase) read?
A: inactive: -0.513%

Q: Which activation (cAMP increase) does the source give for `O=C(OC1CN2CCC1CC2)c1cccc([N+](=O)[O-])c1` (stereo not given) here?
A: inactive: 24.5% [at 15.4 µM]

Q: For `CP(=O)(Nc1ccccn1)Oc1ccc(Cl)cc1` (stereo not given), which activation (cAMP increase) is on record?
A: inactive: 2.16%

Q: Which activation (cAMP increase) does the source give for `CCC(C)N(CC(C)C)C(=S)SC(NC(C)=O)C(Cl)(Cl)Cl` (stereo not given) here?
A: inactive: -31.3%

Q: Which activation (cAMP increase) does the source give for `CP(=O)(Nc1ccc(SC(F)(F)F)cc1)Oc1ccc(Cl)cc1` (stereo not given) here?
A: inactive: 17.1%

Q: Which activation (cAMP increase) does the source give for `Cc1cccc(C)c1OP(C)(=O)Nc1ccc(SC(F)(F)F)cc1` (stereo not given) here?
A: inactive: -35.3%

Q: With `COP1(=S)c2c(C)nn(CCC#N)c2N=C(c2ccc(F)cc2)N1C` (stereo not given) as the compound, how does the activation (cAMP increase) read?
A: inactive: 4.77%

Q: For `Cc1cc(C)cc(OP(C)(=O)Nc2ccc(SC(F)(F)F)cc2)c1` (stereo not given), which activation (cAMP increase) is on record?
A: inactive: -5.52% [at 15.4 µM]

Q: With `CCc1ccc(OP(C)(=O)N2CCN(c3ccc([N+](=O)[O-])cc3)CC2)cc1` (stereo not given) as the compound, how does the activation (cAMP increase) read?
A: inactive: -35.4%

Q: For `CP(=O)(NC(=O)Nc1ccccc1)Oc1ccccc1` (stereo not given), which activation (cAMP increase) is on record?
A: inactive: -5.9%

Q: With `O=C(COc1ccccc1)OC1CN2CCC1CC2` (stereo not given) as the compound, how does the activation (cAMP increase) read?
A: inactive: -0.164%

Q: For `C[N+]1=C2C=CC=CC=C2SC12C([N+](=O)[O-])=CC([N+](=O)[O-])=C[C-]2[N+](=O)[O-]` (stereo not given), which activation (cAMP increase) is on record?
A: inactive: 24.1%

Q: For `Nc1ccc([As](=O)(O)c2ccc(N)cc2)cc1`, which activation (cAMP increase) is on record?
A: inactive: -6.23% [at 15.4 µM]

Q: Which activation (cAMP increase) does the source give for `CC(C)(C)c1ccc(OP(C)(=O)O)cc1` here?
A: inactive: -33.7%

Q: Which activation (cAMP increase) does the source give for `COc1ccccc1OP(C)(=O)Nc1ccccc1Br` (stereo not given) here?
A: inactive: -3.19% [at 15.4 µM]

Q: Which activation (cAMP increase) does the source give for `CP(=O)(Nc1ccc(Cl)cc1)Oc1ccc(F)cc1` (stereo not given) here?
A: inactive: -42%

Q: With `CCN(/C(=N/P(=O)(N1CCOCC1)N1CCOCC1)N1CCOCC1)c1ccc(OC)cc1` as the compound, how does the activation (cAMP increase) read?
A: inactive: 2.85% [at 15.4 µM]

Q: For `CN(C)C(=O)OCCc1n(C)cc[n+]1C`, which activation (cAMP increase) is on record?
A: inactive: 1.36%

Q: For `CC(C)=N/N=C(\N)N[N+](=O)[O-]`, which activation (cAMP increase) is on record?
A: inactive: 22.7% [at 15.4 µM]

Q: For `CN(C)C(=O)c1c([N+](=O)[O-])cc([N+](=O)[O-])cc1[N+](=O)[O-]`, which activation (cAMP increase) is on record?
A: inactive: 13.6%

Q: For `CC(C)c1nc(Nc2ccccc2)n(P(=O)(N(C)C)N(C)C)n1`, which activation (cAMP increase) is on record?
A: inactive: 21.9%

Q: Which activation (cAMP increase) does the source give for `c1cc(-c2nn[nH]n2)ccc1-c1nn[nH]n1` here?
A: inactive: -1.83%

Q: With `COc1ccc(C2=NCC(CBr)S2)cc1` (stereo not given) as the compound, how does the activation (cAMP increase) read?
A: inactive: 23.8% [at 15.4 µM]

Q: Which activation (cAMP increase) does the source give for `COc1ccc(OP(C)(=O)Nc2ccc(Br)cc2)cc1` (stereo not given) here?
A: inactive: -2.87% [at 15.4 µM]

Q: For `CCN(CC)CC(O)COC(=O)C(O)(c1ccccc1)C1CCCCC1` (stereo not given), which activation (cAMP increase) is on record?
A: inactive: 7.33%

Q: Which activation (cAMP increase) does the source give for `O=C(OCCCN1CCCC1)C(O)(c1ccccc1)C1CCCCC1` (stereo not given) here?
A: inactive: -7.88% [at 15.4 µM]

Q: For `COc1ccccc1OP(C)(=O)Nc1c(C)n(C)n(-c2ccccc2)c1=O` (stereo not given), which activation (cAMP increase) is on record?
A: inactive: -49%

Q: For `CC(=O)N1C2C3N(C(C)=O)C1C1N(C(C)=O)C(C(N1C(C)=O)N3C(C)=O)N2C(C)=O`, which activation (cAMP increase) is on record?
A: inactive: -37.5%

Q: Which activation (cAMP increase) does the source give for `O=[N+]([O-])c1cccc2n[nH]nc12` here?
A: inactive: -26%

Q: Which activation (cAMP increase) does the source give for `O=[N+]([O-])c1cc([N+](=O)[O-])c(CCNc2ccccc2)c([N+](=O)[O-])c1` here?
A: inactive: -22.9% [at 15.4 µM]

Q: With `CCc1nc2c(n1)c1c(non1O)c1c2no[n+]1[O-]` as the compound, how does the activation (cAMP increase) read?
A: inactive: -16.9%

Q: With `CCc1ccc(OP(C)(=O)Nc2cccnc2)cc1` (stereo not given) as the compound, how does the activation (cAMP increase) read?
A: inactive: 3.01% [at 15.4 µM]

Q: Which activation (cAMP increase) does the source give for `Cc1ccc(NP(=O)(Oc2ccccc2)Oc2ccccc2)nc1` here?
A: inactive: -1.27%

Q: Which activation (cAMP increase) does the source give for `CP(=O)(Oc1ccccc1)N1CCOC1=O` (stereo not given) here?
A: inactive: -3.91%

Q: Which activation (cAMP increase) does the source give for `CC(C)(C)C(=O)NC(Sc1ccncn1)C(Cl)(Cl)Cl` (stereo not given) here?
A: inactive: 27.8%

Q: For `O=[N+]([O-])c1ncn(CCn2ncnc2[N+](=O)[O-])n1`, which activation (cAMP increase) is on record?
A: inactive: -0.198%

Q: With `O=[N+]([O-])c1cccc(NC2=NCC(CBr)S2)c1` (stereo not given) as the compound, how does the activation (cAMP increase) read?
A: inactive: 5.29%

Q: For `O=C(O)CNc1ccc([As](=O)(O)O)cc1`, which activation (cAMP increase) is on record?
A: inactive: 6.15%

Q: Which activation (cAMP increase) does the source give for `O=P1(N(CCCl)CCCl)OCCCS1` (stereo not given) here?
A: inactive: 8.36%

Q: For `O=C(Nc1cc([As](=O)(O)O)ccc1O)c1ccccc1`, which activation (cAMP increase) is on record?
A: inactive: 25.3%

Q: For `CCOC(=O)c1ccc(NP(C)(=O)Oc2ccc(Cl)cc2)cc1` (stereo not given), which activation (cAMP increase) is on record?
A: inactive: -3.35%

Q: For `CP(=O)(OC12CC3CC(CC(C3)C1)C2)OC12CC3CC(CC(C3)C1)C2`, which activation (cAMP increase) is on record?
A: inactive: -13.5%

Q: With `CCN(N=Nc1nonc1N)c1nonc1N` as the compound, how does the activation (cAMP increase) read?
A: inactive: 4.53% [at 15.4 µM]

Q: Which activation (cAMP increase) does the source give for `CCC(=O)N(c1ccccc1)C1CCCCC1` here?
A: inactive: 4.06%

Q: For `CP(=O)(OCCOc1ccccc1)OCCOc1ccccc1`, which activation (cAMP increase) is on record?
A: inactive: 8%

Q: Which activation (cAMP increase) does the source give for `CP(=O)(Nc1ccc(Cl)cc1Cl)Oc1ccccc1` (stereo not given) here?
A: inactive: 1.58%

Q: Which activation (cAMP increase) does the source give for `CCCCCCCCCCCCCCCC1C[N+](C)(C)CCOP(C)(=O)O1` (stereo not given) here?
A: inactive: 1.45%

Q: For `Nc1cccc2ccc([As](=O)(O)O)cc12`, which activation (cAMP increase) is on record?
A: inactive: -4.13%
